Assay results taken from ChEMBL document CHEMBL1130317 (J Med Chem, 1997).

Biological target: T1, Aldo-keto reductase family 1 member A1 (Rattus norvegicus) (UniProt P51635)
T1 sequence (whole entry): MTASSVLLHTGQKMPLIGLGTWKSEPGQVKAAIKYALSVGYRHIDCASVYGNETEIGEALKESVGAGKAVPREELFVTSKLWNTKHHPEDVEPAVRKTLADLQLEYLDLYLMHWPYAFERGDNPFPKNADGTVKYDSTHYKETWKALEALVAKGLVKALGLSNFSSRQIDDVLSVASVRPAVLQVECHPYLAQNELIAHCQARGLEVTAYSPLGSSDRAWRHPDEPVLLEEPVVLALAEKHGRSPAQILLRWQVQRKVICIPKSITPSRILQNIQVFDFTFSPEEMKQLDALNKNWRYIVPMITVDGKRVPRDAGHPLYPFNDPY
Assay: Percent inhibition of rat kidney Aldehyde reductase (ALR) at 1x10E-4 M

## O=C(O)CN1C(=O)CN(Cc2cccc([N+](=O)[O-])c2)C1=O
  inhibition: 0%
